This is an account of results in patent US20250101023A1, “HETEROARYL DERIVATIVE AND USES THEREOF” (IUCF-HYU (INDUSTRY-UNIVERSITY COOPERATION FOUNDATION …, priority 2022, published 2025).

Molecules are shown by their SMILES.

One experiment has as its system SK-Br3 cells. Put plainly: Breast cancer growth inhibitory activity (Cell-titer Glo, 72 h). It counts as cell-based. The settings on record: Homo sapiens, SK-BR-3.
The next experiment relates to HCC1954 cells. The description is as above. Type of experiment: cell-based. Particulars: Homo sapiens.

One may read the GI50 as the concentration at which growth is held to half of that of the control. Lower therefore signals more potent growth inhibition. With `CCn1cnc2c(NCc3ccc(-n4cccn4)nc3)nc(-c3cccnc3)nc21` [Example 59, N-((6-(1H-pyrazol-1-yl)pyridin-3-yl)methyl)-9-ethyl-2-(pyridin-3-yl)-9H-purin-6-amine], the GI50 with SK-Br3 cells was found to be 0.032 µM; in the experiment on HCC1954 cells it was 0.039 µM.

`CCn1cnc2c(NCc3ccc(-c4cn[nH]c4)nc3)nc(-c3cccnc3)nc21` [Example 56, N-((6-(1H-pyrazol-4-yl)pyridin-3-yl)methyl)-9-ethyl-2-(pyridin-3-yl)-9H-purin-6-amine] returned a GI50 in the experiment with HCC1954 cells of 3.2 µM.

For `CCn1cnc2c(NCc3ccc(-c4ccoc4)nc3)nc(-c3cccnc3)nc21` [Example 58, 9-ethyl-N-((6-(furan-3-yl)pyridin-3-yl)methyl)-2-(pyridin-3-yl)-9H-purin-6-amine], the GI50 in the experiment with SK-Br3 cells was 0.031 µM; in the experiment with HCC1954 cells, 0.029 µM.

Turning to `CCn1cnc2c(NCc3ccc(-n4nc(C)cc4C)nc3)nc(-c3cccnc3)nc21` [Example 60, N-((6-(3,5-dimethyl-1H-pyrazol-1-yl)pyridin-3-yl)methyl)-9-ethyl-2-(pyridin-3-yl)-9H-purin-6-amine], the results for the GI50 in the experiment on SK-Br3 cells and in the experiment with HCC1954 cells were 0.102 µM and 0.097 µM, respectively.

With `CCn1cnc2c(NCc3ccc(-n4nc(C)cc4C)nc3)nc(N3CCCC[C@H]3CCO)nc21` [Example 65, (S)-2-(1-(6-(((6-(3,5-dimethyl-TH-pyrazol-1-yl)pyridin-3-yl)methyl)amino)-9-ethyl-9H-purin-2-yl)piperidin-2-yl)ethan-1-ol], the results for the GI50 in the experiment on SK-Br3 cells and with HCC1954 cells were 0.035 µM and 0.038 µM, respectively.

`CCn1cnc2c(NCc3ccc(-n4nc(C)cc4C)nc3)nc(N3CCOC[C@H]3CCO)nc21` [Example 66, (R)-2-(4-(6-(((6-(3,5-dimethyl-1H-pyrazol-1-yl)pyridin-3-yl)methyl)amino)-9-ethyl-9H-purin-2-yl)morpholin-3-yl)ethan-1-ol]: the GI50 in the experiment with SK-Br3 cells amounted to 0.019 µM; in the experiment with HCC1954 cells, 0.02 µM.

`CCn1cnc2c(NCc3ccc(-n4nc(C)cc4C)nc3)nc(-c3ccc(N)nc3)nc21` [Example 61, 2-(6-aminopyridin-3-yl)-N-((6-(3,5-dimethyl-1H-pyrazol-1-yl)pyridin-3-yl)methyl)-9-ethyl-9H-purin-6-amine]: it took 0.15 µM to inhibit growth with HCC1954 cells by half (GI50).

`CCn1cnc2c(NCc3ccc(-c4ccc5cn[nH]c5c4)nc3)nc(-c3cccnc3)nc21` [Example 57, N-((6-(1H-indazol-6-yl)pyridin-3-yl)methyl)-9-ethyl-2-(pyridin-3-yl)-9H-purin-6-amine] had a GI50 in the experiment with HCC1954 cells of 5.04 µM.

The compound `CCn1cnc2c(NCc3ccc(-c4nccs4)nc3)nc(-c3cccnc3)nc21` [Example 55, 9-ethyl-2-(pyridin-3-yl)-N-((6-(thiazol-2-yl)pyridin-3-yl)methyl)-9H-purin-6-amine] gave a GI50 in the experiment with HCC1954 cells of 0.529 µM.
